# Assay results published in patent US9127008B2, “Morphine sulfate methanolic solvate, processes for making same and related compositions and methods for treating pain” (Johnson Matthey Public Limited Company, priority 2013, dated 2015).
# Where two headings read alike, the source gives them in different places.
# Tests used:
# [1] = 2 months under air at room temperature
# [2] = first sample: about 1 month room temperature, then about 1 month at 60° C. sealed under air
# [3] = second sample: about 1 month room temperature in air, then about 1 month at 60° C. sealed under nitrogen
substance,measurement,setting,value
morphine sulfate methanol solvate,methanol content after storage,[1],8.75 % by weight
same,water content after storage,[1],2.85 % by weight
same,ABUK level after storage,[1]; morphine base had 5 ppm ABUK at start,11 ppm
same,ABUK level after storage,[2],59 ppm
same,methanol content after storage,[2],7.72 % by weight
same,water content after storage,[2],5.09 % by weight
same,ABUK level after storage,[3],21 ppm
same,methanol content after storage,[3],7.21 % by weight
same,water content after storage,[3],5.18 % by weight
